# Results taken from patent publication US20250282736A1.
# Sequences of proteins named here, by UniProt entry; tags and fusion partners are left off.
# UniProt O75469, whole entry: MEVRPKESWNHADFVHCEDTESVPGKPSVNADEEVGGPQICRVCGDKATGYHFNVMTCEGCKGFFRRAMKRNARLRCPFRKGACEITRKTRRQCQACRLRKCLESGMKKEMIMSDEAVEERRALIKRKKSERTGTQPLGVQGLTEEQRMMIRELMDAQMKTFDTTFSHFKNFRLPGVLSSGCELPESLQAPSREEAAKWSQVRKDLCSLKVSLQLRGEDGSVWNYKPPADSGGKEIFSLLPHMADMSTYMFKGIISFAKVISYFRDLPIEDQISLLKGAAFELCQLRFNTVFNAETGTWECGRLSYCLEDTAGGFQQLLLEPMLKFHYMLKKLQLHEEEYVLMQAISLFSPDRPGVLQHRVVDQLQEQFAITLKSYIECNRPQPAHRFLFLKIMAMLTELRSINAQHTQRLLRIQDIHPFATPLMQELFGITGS
# Key:
# [1] = target: T1, hPXR (Homo sapiens (Human), UniProt O75469); experiment: cell-based hPXR agonistic assay; conditions: for Agonist (% activation at 10 μM): rifampicin at 10 μM as 100% activation, DMSO (0.3%) as 0%; for EC50: read-out: Agonist (EC50/μM), cell-based hPXR agonistic assay
# [2] = target: T1, hPXR; experiment: cell-based hPXR antagonistic assay; conditions: read-out: Antagonist (IC50/μM); cell-based hPXR antagonistic assay with rifampicin (5 μM)
# [3] = target: T1, hPXR; experiment: cell-based hPXR inverse agonistic assay; conditions: read-out: Inverse agonist (IC50/μM)
# [4] = target: T1, hPXR; experiment: hPXR binding assay; conditions: read-out: Binding (IC50/μM)
Agonist (% activation at 10 μM) [1],EC50 [1] [µM],IC50 [2] [µM],IC50 [3] [µM],IC50 [4] [µM],SMILES
(81 ± 9)%,10.7,> 30,> 30,–,COc1ccc(OC)c(-n2nnc(C(=O)Nc3cc(C(C)(C)C)ccc3OCC(=O)O)c2C)c1
–,> 30,0.7,> 30,> 30,COc1ccc(OC)c(-n2nnc(C(=O)Nc3cc(OCCOCCOCCOCCNC(=O)CCC4=[N+]5C(=Cc6c(C)cc(C)n6[B-]5(F)F)C=C4)cc(C(C)(C)C)c3)c2C)c1
(54 ± 11)%,0.0014,4.49,> 30,0.0038,CCCC(CC)Oc1ccc(C(C)(C)C)cc1C(=O)Nc1nnn(-c2cc(OC)ccc2OC)c1C (stereo not drawn)

SMILES,Agonist (% activation at 10 μM) [1],EC50 [1] [µM],IC50 [2] [µM],IC50 [3] [µM],IC50 [4] [µM]
CCC(C)Oc1ccc(C(C)(C)C)cc1C(=O)Nc1nnn(-c2cc(OC)ccc2OC)c1C (stereo not drawn),(58 ± 3)%,0.0094,12,> 30,0.03
